# Results published in ChEMBL document CHEMBL1154924, “Carbonic anhydrase activators: Activation of the beta-carbonic anhydrase from the pathogenic yeast Candida glabrata with amines and amino acids” (Bioorg Med Chem Lett, 2010).
# Assays:
# [1] = biological target: T1, Carbonic anhydrase (Candida glabrata CBS 138) (UniProt Q6FTL6); assay: Activation of Candida glabrata recombinant carbonic anhydrase by stopped flow CO2 hydration method; settings: Nakaseomyces glabratus
# T1 sequence (whole entry): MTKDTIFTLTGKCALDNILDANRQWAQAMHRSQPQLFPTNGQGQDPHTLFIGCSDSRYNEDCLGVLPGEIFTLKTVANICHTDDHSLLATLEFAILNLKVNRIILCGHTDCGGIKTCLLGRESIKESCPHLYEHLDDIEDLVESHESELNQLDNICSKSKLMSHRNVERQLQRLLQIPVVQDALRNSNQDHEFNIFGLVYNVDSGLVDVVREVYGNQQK
# How it was run: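 Recombinant yeast enzyme; stopped-flow CO2 hydration at 25 °C in 20 mM Tris (pH 8.3) and 20 mM NaClO4, with 0.2 mM phenol red read at 557 nm over 10 s. CO2 was 1.7–17 mM. Activators came from 10 mM aqueous stocks and were preincubated 15 min at room temperature with enzyme. Uncatalyzed rates were subtracted. KA was fitted from catalytic enhancement versus activator concentration; mean ± standard error of three assays.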
# [2] = biological target: T2, Carbonic anhydrase (Methanobacterium thermoautotrophicum) (UniProt Q50565); assay: Activation of archaea Methanobacterium thermoautotrophicum recombinant carbonic anhydrase by stopped flow CO2 hydration method; settings: Methanothermobacter thermautotrophicus
# T2 sequence (whole entry): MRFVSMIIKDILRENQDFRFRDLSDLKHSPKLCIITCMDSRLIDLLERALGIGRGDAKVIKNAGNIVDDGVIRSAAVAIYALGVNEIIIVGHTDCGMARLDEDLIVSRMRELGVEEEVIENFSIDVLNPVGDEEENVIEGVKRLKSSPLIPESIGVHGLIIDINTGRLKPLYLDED
Ka [1] [µM],Ka [2] [µM],SMILES
24.1,70,N[C@@H](Cc1ccccc1)C(=O)O
15.7,10.3,N[C@H](Cc1ccccc1)C(=O)O
